{"sequences": {"note": "Sequences of proteins named here, by UniProt entry; tags and fusion partners are left off.", "UniProt P35372, whole entry": "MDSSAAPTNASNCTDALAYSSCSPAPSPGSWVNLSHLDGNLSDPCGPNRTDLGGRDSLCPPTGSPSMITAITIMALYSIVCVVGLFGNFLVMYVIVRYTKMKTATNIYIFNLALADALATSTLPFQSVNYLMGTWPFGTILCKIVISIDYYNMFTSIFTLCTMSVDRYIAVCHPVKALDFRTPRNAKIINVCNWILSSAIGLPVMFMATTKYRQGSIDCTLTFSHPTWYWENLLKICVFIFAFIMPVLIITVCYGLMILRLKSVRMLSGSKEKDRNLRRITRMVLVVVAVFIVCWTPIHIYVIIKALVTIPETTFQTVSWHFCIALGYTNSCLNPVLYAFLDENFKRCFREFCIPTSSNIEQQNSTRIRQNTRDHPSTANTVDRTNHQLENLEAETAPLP"}, "source": "ChEMBL document CHEMBL1146036", "about": "“Structural determinants of opioid activity in derivatives of 14-aminomorphinones: effect of substitution in the aromatic ring of cinnamoylaminomorphinones and codeinones” (J Med Chem, 2006)", "target": "Mu-type opioid receptor (Homo sapiens, UniProt P35372)", "format": "cell-based, CHO"}
{"smiles": "COc1ccc2c3c1O[C@H]1C(=O)CC[C@@]4(NC(=O)/C=C/c5ccc(Cl)cc5)[C@@H](C2)N(CC2CC2)CC[C@]314", "values": [{"measurement": "Ki", "value": 4.78, "unit": "nM"}]}
